Source: ChEMBL document CHEMBL3297703, “Novel quinuclidinyl heteroarylcarbamate derivatives as muscarinic receptor antagonists” (Bioorg Med Chem, 2014)

Amino acid sequences for entries named in this document (tags omitted). A change or cut given only in a name is not applied to a line headed by its entry.
UniProt P10980, whole entry: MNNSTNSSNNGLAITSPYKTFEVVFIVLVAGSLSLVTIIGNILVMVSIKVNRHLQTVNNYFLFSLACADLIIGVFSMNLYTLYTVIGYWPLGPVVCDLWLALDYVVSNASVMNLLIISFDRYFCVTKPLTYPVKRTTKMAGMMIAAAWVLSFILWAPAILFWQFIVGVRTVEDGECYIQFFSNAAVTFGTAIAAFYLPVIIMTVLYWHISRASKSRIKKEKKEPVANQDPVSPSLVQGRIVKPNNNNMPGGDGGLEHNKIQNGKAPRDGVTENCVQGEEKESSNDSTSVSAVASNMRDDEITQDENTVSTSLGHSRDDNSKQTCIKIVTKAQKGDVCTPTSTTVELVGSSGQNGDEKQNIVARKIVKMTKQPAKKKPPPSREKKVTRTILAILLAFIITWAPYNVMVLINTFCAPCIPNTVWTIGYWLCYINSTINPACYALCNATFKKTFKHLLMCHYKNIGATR
UniProt P08483, whole entry: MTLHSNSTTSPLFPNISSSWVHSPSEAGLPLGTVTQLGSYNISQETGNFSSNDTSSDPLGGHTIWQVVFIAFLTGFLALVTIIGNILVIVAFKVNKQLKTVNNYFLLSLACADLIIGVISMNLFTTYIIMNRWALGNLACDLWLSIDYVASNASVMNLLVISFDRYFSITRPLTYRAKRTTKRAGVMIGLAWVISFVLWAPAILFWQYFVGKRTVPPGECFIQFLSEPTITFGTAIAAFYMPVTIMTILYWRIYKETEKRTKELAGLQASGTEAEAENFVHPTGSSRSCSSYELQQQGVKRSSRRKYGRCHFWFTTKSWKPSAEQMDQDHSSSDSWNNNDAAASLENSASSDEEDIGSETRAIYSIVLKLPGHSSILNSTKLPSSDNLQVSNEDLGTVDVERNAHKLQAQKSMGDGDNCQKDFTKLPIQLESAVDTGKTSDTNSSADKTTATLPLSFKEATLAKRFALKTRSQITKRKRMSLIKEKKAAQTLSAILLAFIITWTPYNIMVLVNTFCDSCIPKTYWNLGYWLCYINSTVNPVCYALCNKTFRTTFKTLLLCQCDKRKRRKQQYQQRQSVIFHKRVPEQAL
UniProt P08482: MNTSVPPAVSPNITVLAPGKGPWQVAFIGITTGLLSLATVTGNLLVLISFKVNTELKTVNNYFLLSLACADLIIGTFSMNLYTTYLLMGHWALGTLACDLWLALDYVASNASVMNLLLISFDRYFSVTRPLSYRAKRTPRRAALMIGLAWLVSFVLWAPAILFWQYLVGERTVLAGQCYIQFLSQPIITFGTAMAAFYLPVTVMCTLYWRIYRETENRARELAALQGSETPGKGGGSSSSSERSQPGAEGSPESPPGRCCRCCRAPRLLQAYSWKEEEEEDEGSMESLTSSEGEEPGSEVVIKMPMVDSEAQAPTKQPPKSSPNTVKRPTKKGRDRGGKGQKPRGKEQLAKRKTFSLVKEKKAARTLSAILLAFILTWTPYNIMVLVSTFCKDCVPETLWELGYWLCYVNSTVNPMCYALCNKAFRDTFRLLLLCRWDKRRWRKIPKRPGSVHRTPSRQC

Legend:
[1] = target: Muscarinic acetylcholine receptor M2 (Rattus norvegicus, UniProt P10980); experiment: Displacement of [3H]-NMS from Sprague-Dawley rat muscarinic M2 receptor in heart
Method in brief: (§1)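 Membranes from male Sprague-Dawley rat cerebral cortex (M1), heart (M2) or submandibular gland (M3), homogenised in 25 mM Tris pH 7.4 with 3.75 mM MgCl2, spun 1000 g. Incubated with [3H]NMS plus compound in Tris buffer, 25 °C, 2 h; filtered, counted. Nonspecific binding with 1 μM NMS. Ki from IC50; mean of duplicates.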

[2] = target: Muscarinic acetylcholine receptor M3 (Rattus norvegicus, UniProt P08483); experiment: Displacement of [3H]-NMS from Sprague-Dawley rat muscarinic M3 receptor in submandibular gland; method in brief: as §1
[3] = target: Muscarinic acetylcholine receptor M1 (Rattus norvegicus, UniProt P08482); experiment: Displacement of [3H]-NMS from Sprague-Dawley rat muscarinic M1 receptor in cortex membrane; type: cell membranes; method in brief: as §1
Rattus norvegicus = species on record: Rattus norvegicus; experiment: Ratio of ID50 for effect on CCh-induced salivation in Sprague-Dawley rat to ID50 for inhibition of CCh-induced bronchoconstriction Sprague-Dawley rat

Compound | Ki [1] | Ki [2] | Ki [3] | Ratio (Rattus norvegicus)
CC(C)[N+]1(C)C2CCC1CC(OC(=O)C(CO)c1ccccc1)C2 (centres undefined) | 0.78 nM | 0.18 nM | 0.29 nM | 
C[N+]1(C)CCC(OC(=O)C(O)(c2ccccc2)C2CCCC2)C1.[Br-] (centres undefined) [GLYCOPYRRONIUM BROMIDE] |  |  |  | 17
